## Parent scFvs against a spike HR2 peptide, AlphaSeq assay 1

Antigen: PDVDLGDISGINAS, a 14-residue peptide of the SARS-CoV-2 spike HR2 region.

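The three antibodies came from panning a naive human phage display library on the peptide; each was carried in both assays of the study as a common reference. Ab-14 and Ab-95 are built VH, linker, VL, and Ab-91 VL, linker, VH. In AlphaSeq, yeast of one mating type display the scFv and yeast of the other type display the target. Pairs that bind mate more often; barcode pairs of the diploids are counted by sequencing. The ratio of observed to expected reads was calibrated, replicate by replicate, on BCL2-family standards whose Kd was known from biolayer interferometry. Each pool was mated in three replicate cultures.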

Numbers give log10(Kd / nM), so 0 is 1 nM and 3 is 1 µM. Smaller is tighter.
A pair that was not seen in that replicate is written "ND"; this usually means weak binding, but a binder can also be missed.
Entries in the file, in the order shown: MIT_91_LH_scFV; AAYL49_29236, AAYL50_1, MIT_14_HL_scFV; MIT_95_HL_scFV. Names that start with MIT are the reference entries, the others are copies inside a library.
Empty control strains, which show no peptide, gave a signal in 17% of pairings with all scFvs of this assay; the median was 4.13 and 95% of these signals were weaker than 2.91. No background was subtracted.
Where one sequence has several entries in the source, the replicates are listed entry by entry, parted by semicolons.

* Ab-91 QAVLTQPSSLSASPGASVSLTCTLRSGINVGTYRIYWYQQKPGSPPQYLLRYKSDSDKQQGSGVPSRFSGSKDASANAGILLISGLQSEDEADYYCMIWHSSAWVFGGGTKLTVLGGGGSGGGGSGGGGSEVQLVESGGGLVQPGRSLRLSCAASGFTFDDYAMHWVRQAPGKGLEWVSGISWNSGSIGYADSVKGRFTISRDNAENSLYLQMNSLRAEDTALYYCAKVGRGGGYFDYWGQGTLVTVSS = 1.18, 1.24, 1.26
* Ab-14 EVQLVETGGGLVQPGGSLRLSCAASGFTLNSYGISWVRQAPGKGPEWVSVIYSDGRRTFYGDSVKGRFTISRDTSTNTVYLQMNSLRVEDTAVYYCAKGRAAGTFDSWGQGTLVTVSSGGGGSGGGGSGGGGSDVVMTQSPESLAVSLGERATISCKSSQSVLYESRNKNSVAWYQQKAGQPPKLLIYWASTRESGVPDRFSGSGSGTDFTLTISSLQAEDAAVYYCQQYHRLPLSFGGGTKVEIK = 4.11, ND, ND; 1.69, 1.66, 1.70; 0.56, 0.81, 0.57
* Ab-95 EVQLVESGAEVKKPGASVKVSCKASGYTFTSYGISWVRQAPGQGLEWMGWISAYNGNTNYAQKLQGRVTMTTDTSTSTAYMELRSLRSDDTAVYYCARVGRGVIDHWGQGTLVTVSSGGGGSGGGGSGGGGSSSELTQDPAVSVALGQTVRITCEGDSLRYYYANWYQQKPGQAPILVIYGKNNRPSGIADRFSGSNSGDTSSLIITGAQAEDEADYYCSSRDSSGFQVFFGAGTKLTVL = 1.32, 1.17, 1.42

From the AlphaSeq antibody data of Engelhart et al. 2022 (doi:10.1038/s41597-022-01779-4), copy in the FLAb collection.